Data from US10196396B2 (priority 2016, dated 2019).

Sequences of proteins named here, by UniProt entry; tags and fusion partners are left off.
UniProt P30542, whole entry: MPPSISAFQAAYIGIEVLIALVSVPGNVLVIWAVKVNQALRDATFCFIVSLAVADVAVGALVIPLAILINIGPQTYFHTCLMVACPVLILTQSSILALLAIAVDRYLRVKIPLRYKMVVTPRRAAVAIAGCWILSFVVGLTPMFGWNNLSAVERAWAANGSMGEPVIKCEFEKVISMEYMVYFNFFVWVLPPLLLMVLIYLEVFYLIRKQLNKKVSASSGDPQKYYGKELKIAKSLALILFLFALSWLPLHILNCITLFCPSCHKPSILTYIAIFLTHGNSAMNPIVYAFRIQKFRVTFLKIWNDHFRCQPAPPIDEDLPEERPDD
UniProt P0DMS8, whole entry: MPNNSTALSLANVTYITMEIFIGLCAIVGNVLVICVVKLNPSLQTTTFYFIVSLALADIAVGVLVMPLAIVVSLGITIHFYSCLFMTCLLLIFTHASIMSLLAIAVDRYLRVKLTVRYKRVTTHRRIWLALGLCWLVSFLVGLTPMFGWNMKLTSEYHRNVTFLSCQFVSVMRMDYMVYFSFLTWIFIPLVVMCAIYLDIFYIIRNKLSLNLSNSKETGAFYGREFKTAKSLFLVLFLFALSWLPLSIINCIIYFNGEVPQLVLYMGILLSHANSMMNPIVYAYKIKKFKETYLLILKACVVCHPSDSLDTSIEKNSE

Key:
[1] = molecular target: human A2a adenosine receptor (Homo sapiens (Human), UniProt P29274); assay: biochemical
[2] = molecular target: human A1 adenosine receptor (Homo sapiens (Human), UniProt P30542); assay: biochemical
human A3 receptor = human A3 receptor (Homo sapiens (Human), UniProt P0DMS8); assay: cell-based

CNC(=O)c1ccc(CNc2nccn3c([C@@H]4SC[C@@H](O)[C@H]4O)cnc23)cc1F [Compound 125, 4-(((3-((2S,3R,4S)-3,4-dihydroxytetrahydrothiophen-2-yl)imidazo[1,2-a]pyrazin-8-yl)amino)methyl)-2-fluoro-N-methylbenzamide]
Ki [1]: > 10 µM | Ki [2]: > 10 µM

CNC(=O)c1ccc(CNc2nccn3c([C@@H]4SC[C@@H](O)[C@H]4O)cnc23)cc1Cl [Compound 126, 2-chloro-4-(((3-((2S,3R,4S)-3,4-dihydroxytetrahydrothiophen-2-yl)imidazo[1,2-a]pyrazin-8-yl)amino)methyl)-N-methylbenzamide]
Ki [1]: > 10 µM | Ki [2]: > 10 µM

O[C@@H]1[C@H](O)CS[C@H]1c1cnc2c(NCCc3cccc(F)c3)nccn12 [Compound 127, (2S,3R,4S)-2-(8-((3-fluorophenethyl)amino)imidazo[1,2-a]pyrazin-3-yl)tetrahydrothiophene-3,4-diol]
Ki [1]: > 10 µM | Ki [2]: > 10 µM

O[C@@H]1[C@H](O)CS[C@H]1c1cnc2c(NC3CC3c3ccccc3)nccn12 (stereo partly drawn) [Compound 129, (2S,3R,4S)-2-(8-((2-phenylcyclopropyl)amino)imidazo[1,2-a]pyrazin-3-yl)tetrahydrothiophene-3,4-diol]
Ki [1]: > 10 µM | Ki [2]: > 10 µM

O[C@@H]1[C@H](O)CS[C@H]1c1cnc2c(NCc3cccc(Br)c3)nccn12 [Compound 132, (2S,3R,4S)-2-(8-((3-bromobenzyl)amino)imidazo[1,2-a]pyrazin-3-yl)tetrahydrothiophene-3,4-diol]
Ki [1]: 1 to 10 µM | Ki [2]: 1 to 10 µM

O[C@@H]1[C@H](O)CS[C@H]1c1cnc2c(NCc3ccncn3)nccn12 [Compound 145, (2S,3R,4S)-2-(8-((pyrimidin-4-ylmethyl)amino)imidazo[1,2-a]pyrazin-3-yl)tetrahydrothiophene-3,4-diol]
Ki [1]: 1 to 10 µM | Ki [2]: > 10 µM

O[C@@H]1[C@H](O)CS[C@H]1c1cnc2c(NCCc3cccc(Cl)c3)nccn12 [Compound 146, (2S,3R,4S)-2-(8-((3-chlorophenethyl)amino)imidazo[1,2-a]pyrazin-3-yl)tetrahydrothiophene-3,4-diol]
Ki [1]: > 10 µM | Ki [2]: > 10 µM

O[C@@H]1[C@H](O)CS[C@H]1c1cnc2c(NCc3cscn3)nccn12 [Compound 147, (2S,3R,4S)-2-(8-((thiazol-4-ylmethyl)amino)imidazo[1,2-a]pyrazin-3-yl)tetrahydrothiophene-3,4-diol]
Ki [1]: > 10 µM | Ki [2]: > 10 µM

O[C@@H]1[C@H](O)CS[C@H]1c1cnc2c(OCc3cccc(Cl)c3)nccn12 [Compound 155, (2S,3R,4S)-2-(8-((3-chlorobenzyl)oxy)imidazo[1,2-a]pyrazin-3-yl)tetrahydrothiophene-3,4-diol]
Ki [1]: > 10 µM | Ki [2]: > 10 µM

O=C(Nc1nccn2c([C@@H]3SC[C@@H](O)[C@H]3O)cnc12)c1cccc(Cl)c1 [Compound 158, 3-chloro-N-(3-((2S,3R,4S)-3,4-dihydroxytetrahydrothiophen-2-yl)imidazo[1,2-a]pyrazin-8-yl)benzamide]
Ki [1]: > 10 µM | Ki [2]: > 10 µM

O[C@@H]1[C@H](O)CS[C@H]1c1cnc2c(C#Cc3cccc(Cl)c3)nccn12 [Compound 159, (2S,3R,4S)-2-(8-((3-chlorophenyl)ethynyl)imidazo[1,2-a]pyrazin-3-yl)tetrahydrothiophene-3,4-diol]
Ki [1]: > 10 µM | Ki [2]: 1 to 10 µM

C[C@@H](Nc1nccn2c([C@@H]3SC[C@@H](O)[C@H]3O)cnc12)c1cccc(Cl)c1 [Compound 160, (2S,3R,4S)-2-(8-(((R)-1-(3-chlorophenyl)ethyl)amino)imidazo[1,2-a]pyrazin-3-yl)tetrahydrothiophene-3,4-diol]
Ki [1]: 1 to 10 µM | Ki [2]: > 10 µM

C[C@H](Nc1nccn2c([C@@H]3SC[C@@H](O)[C@H]3O)cnc12)c1cccc(Cl)c1 [Compound 161, (2S,3R,4S)-2-(8-(((S)-1-(3-chlorophenyl)ethyl)amino)imidazo[1,2-a]pyrazin-3-yl)tetrahydrothiophene-3,4-diol]
Ki [1]: 1 to 10 µM | Ki [2]: > 10 µM

O[C@@H]1[C@H](O)CS[C@H]1c1cnc2c(N[C@H]3C[C@@H]3c3ccccc3)nccn12 [Compound 162, (2S,3R,4S)-2-(8-(((1S,2R)-2-phenylcyclopropyl)amino)imidazo[1,2-a]pyrazin-3-yl)tetrahydrothiophene-3,4-diol]
Ki [1]: > 10 µM | Ki [2]: > 10 µM

O[C@@H]1[C@H](O)CS[C@H]1c1cnc2c(NCc3ccccc3Cl)nccn12 [Compound 163, (2S,3R,4S)-2-(8-((2-chlorobenzyl)amino)imidazo[1,2-a]pyrazin-3-yl)tetrahydrothiophene-3,4-diol]
Ki [1]: 1 to 10 µM | Ki [2]: > 10 µM

O[C@@H]1[C@H](O)CS[C@H]1c1cnc2c(NCc3ccc(Cl)cc3)nccn12 [Compound 164, (2S,3R,4S)-2-(8-((4-chlorobenzyl)amino)imidazo[1,2-a]pyrazin-3-yl)tetrahydrothiophene-3,4-diol]
Ki [1]: > 10 µM | Ki [2]: > 10 µM

O=S(=O)(Nc1nccn2c([C@@H]3SC[C@@H](O)[C@H]3O)cnc12)c1cccc(Cl)c1 [Compound 167, 3-chloro-N-(3-((2S,3R,4S)-3,4-dihydroxytetrahydrothiophen-2-yl)imidazo[1,2-a]pyrazin-8-yl)benzenesulfonamide]
Ki [1]: > 10 µM | Ki [2]: > 10 µM

O[C@@H]1[C@H](O)CS[C@H]1c1cnc2c(NCc3ccccc3I)nccn12 [Compound 168, (2S,3R,4S)-2-(8-((2-iodobenzyl)amino)imidazo[1,2-a]pyrazin-3-yl)tetrahydrothiophene-3,4-diol]
Ki [1]: > 10 µM | Ki [2]: > 10 µM

O[C@@H]1[C@H](O)CS[C@H]1c1cnc2c(NCCc3ccccc3F)nccn12 [Compound 169, (2S,3R,4S)-2-(8-((2-fluorophenethyl)amino)imidazo[1,2-a]pyrazin-3-yl)tetrahydrothiophene-3,4-diol]
Ki [1]: > 10 µM | Ki [2]: > 10 µM

O[C@@H]1[C@H](O)CS[C@H]1c1cnc2c(NCCc3ccc(F)cc3)nccn12 [Compound 170, (2S,3R,4S)-2-(8-((4-fluorophenethyl)amino)imidazo[1,2-a]pyrazin-3-yl)tetrahydrothiophene-3,4-diol]
Ki [1]: > 10 µM | Ki [2]: > 10 µM

O[C@@H]1[C@H](O)CS[C@H]1c1cnc2c(NCc3cc(Cl)cc(Cl)c3)nccn12 [Compound 184, (2S,3R,4S)-2-(8-((3,5-dichlorobenzyl)amino)imidazo[1,2-a]pyrazin-3-yl)tetrahydrothiophene-3,4-diol]
Ki [1]: 1 to 10 µM | Ki [2]: > 10 µM

O[C@@H]1[C@H](O)CS[C@H]1c1cnc2c(NCc3cccc(-c4nnn[nH]4)c3)nccn12 [Compound 191, (2S,3R,4S)-2-(8-((3-(1H-tetrazol-5-yl)benzyl)amino)imidazo[1,2-a]pyrazin-3-yl)tetrahydrothiophene-3,4-diol 2,2,2-trifluoroacetic acid]
IC50 (human A3 receptor): 0.01 to 0.1 µM

O[C@@H]1[C@H](O)CS[C@H]1c1cnc2c(NCCc3ccc(F)cc3F)nccn12 [Compound 193, (2S,3R,4S)-2-(8-((2,4-difluorophenethyl)amino)imidazo[1,2-a]pyrazin-3-yl)tetrahydrothiophene-3,4-diol]
IC50 (human A3 receptor): 0.01 to 0.1 µM

O[C@@H]1[C@H](O)CS[C@H]1c1cnc2c(NCCc3cc(F)ccc3F)nccn12 [Compound 194, (2S,3R,4S)-2-(8-((2,5-difluorophenethyl)amino)imidazo[1,2-a]pyrazin-3-yl)tetrahydrothiophene-3,4-diol]
IC50 (human A3 receptor): 0.01 to 0.1 µM

O[C@@H]1[C@H](O)CS[C@H]1c1cnc2c(SCc3cccc(Cl)c3)nccn12 [Compound 199, (2S,3R,4S)-2-(8-((3-chlorobenzyl)thio)imidazo[1,2-a]pyrazin-3-yl)tetrahydrothiophene-3,4-diol]
IC50 (human A3 receptor): < 0.01 µM

O[C@@H]1[C@H](O)CS[C@H]1c1cnc2c(NCc3cc(F)cc(Cl)c3)nccn12 [Compound 201, (2S,3R,4S)-2-(8-((3-chloro-5-fluorobenzyl)amino)imidazo[1,2-a]pyrazin-3-yl)tetrahydrothiophene-3,4-diol]
IC50 (human A3 receptor): 0.1 to 1 µM

O[C@@H]1[C@H](O)CS[C@H]1c1cnc2c(NCc3cccc(C4CC4)c3)nccn12 [Compound 202, (2S,3R,4S)-2-(8-((3-cyclopropylbenzyl)amino)imidazo[1,2-a]pyrazin-3-yl)tetrahydrothiophene-3,4-diol]
IC50 (human A3 receptor): > 10 µM

O[C@@H]1[C@H](O)CS[C@H]1c1cnc2c(NCc3cccc(Oc4ccccc4)c3)nccn12 [Compound 204, (2S,3R,4S)-2-(8-((3-phenoxybenzyl)amino)imidazo[1,2-a]pyrazin-3-yl)tetrahydrothiophene-3,4-diol]
IC50 (human A3 receptor): 0.01 to 0.1 µM

COC(=O)c1cccc(CNc2nccn3c([C@@H]4SC[C@@H](O)[C@H]4O)cnc23)c1 [Compound 205, methyl 3-(((3-((2S,3R,4S)-3,4-dihydroxytetrahydrothiophen-2-yl)imidazo[1,2-a]pyrazin-8-yl)amino)methyl)benzoate]
IC50 (human A3 receptor): 0.01 to 0.1 µM

O[C@@H]1[C@H](O)CS[C@H]1c1cnc2c(CCc3cccc(Cl)c3)nccn12 [Compound 206, (2S,3R,4S)-2-(8-(3-chlorophenethyl)imidazo[1,2-a]pyrazin-3-yl)tetrahydrothiophene-3,4-diol]
IC50 (human A3 receptor): > 10 µM

O[C@@H]1[C@H](O)CS[C@H]1c1cnc2c(N[C@H]3C[C@@H]3c3ccc(F)c(F)c3)nccn12 [Compound 209, (2S,3R,4S)-2-(8-(((1S,2R)-2-(3,4-difluorophenyl)cyclopropyl)amino)imidazo[1,2-a]pyrazin-3-yl)tetrahydrothiophene-3,4-diol]
IC50 (human A3 receptor): 0.01 to 0.1 µM

O[C@@H]1[C@H](O)CS[C@H]1c1cnc2c(NCc3cccc(Cl)c3)nc(Cl)cn12 [Compound 217, (2S,3R,4S)-2-(6-chloro-8-((3-chlorobenzyl)amino)imidazo[1,2-a]pyrazin-3-yl)tetrahydrothiophene-3,4-diol]
IC50 (human A3 receptor): < 0.01 µM

O[C@@H]1[C@H](O)CS[C@H]1c1nnc2c(NCc3cccc(Cl)c3)cccn12 [Compound 218, (2S,3R,4S)-2-(8-((3-chlorobenzyl)amino)-[1,2,4]triazolo[4,3-a]pyridin-3-yl)tetrahydrothiophene-3,4-diol]
IC50 (human A3 receptor): 0.1 to 1 µM
